Read-outs that look alike come from different tables or passages of the source.
Tests used:
[1] = tested on: Shionogi mouse mammary carcinoma cells; experiment: Antiandrogenic activity: inhibition of DHT-induced proliferation of Shionogi cells; format: cell-based
[2] = biological target: human type 5 17β-hydroxysteroid dehydrogenase (Homo sapiens, UniProt P42330); experiment: Inhibition of human type 5 17β-HSD activity in transfected 293 cells; format: cell-based
[3] = tested on: Shionogi mouse mammary carcinoma cells; experiment: Androgenic activity: stimulation of proliferation of Shionogi cells
[4] = biological target: human type 2 17β-hydroxysteroid dehydrogenase (Homo sapiens, UniProt P37059); experiment: Enzymatic assay for type 2 17β-HSD; settings: for Inhibition Type 2 17β-HSD Activity [% Inh.]: at 3.10^-8M
ZR-75-1 cells [5] = experiment: Estrogenic activity: stimulation of proliferation of ZR-75-1 cells; format: cell-based, human
ZR-75-1 cells [6] = experiment: Antiestrogenic activity: inhibition of E2-induced proliferation of ZR-75-1 cells; parameters: ZR-75-1 Activity, E2 / ZR-75-1 Activity E2 E^−6: unit not given here
[7] = read-out: Inhibition Type V 17B-HSD IC50
[8] = read-out: Inhibition Type V 17β-HSD IC50
[9] = read-out: Antiandrogenic Activity Shionogi DHT [IC50 (nM)], with DHT, value in square brackets on second line
[10] = read-out: Inhibition Type V 17β-HSD IC50, Table 5 column 2
[11] = read-out: Antiandrogenic Activity Shionogi, DHT [IC50], DHT

By UniProt entry, the sequences of proteins in these tests, tags left out.
UniProt P42330, whole entry: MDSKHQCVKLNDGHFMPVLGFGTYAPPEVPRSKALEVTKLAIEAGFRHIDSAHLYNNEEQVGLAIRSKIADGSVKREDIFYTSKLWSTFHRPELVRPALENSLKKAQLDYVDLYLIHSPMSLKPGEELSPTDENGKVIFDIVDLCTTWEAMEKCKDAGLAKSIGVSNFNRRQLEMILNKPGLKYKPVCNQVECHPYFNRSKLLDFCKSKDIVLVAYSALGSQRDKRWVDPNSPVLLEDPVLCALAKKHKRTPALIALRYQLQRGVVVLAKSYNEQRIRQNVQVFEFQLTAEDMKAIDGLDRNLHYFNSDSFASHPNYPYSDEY
UniProt P37059, whole entry: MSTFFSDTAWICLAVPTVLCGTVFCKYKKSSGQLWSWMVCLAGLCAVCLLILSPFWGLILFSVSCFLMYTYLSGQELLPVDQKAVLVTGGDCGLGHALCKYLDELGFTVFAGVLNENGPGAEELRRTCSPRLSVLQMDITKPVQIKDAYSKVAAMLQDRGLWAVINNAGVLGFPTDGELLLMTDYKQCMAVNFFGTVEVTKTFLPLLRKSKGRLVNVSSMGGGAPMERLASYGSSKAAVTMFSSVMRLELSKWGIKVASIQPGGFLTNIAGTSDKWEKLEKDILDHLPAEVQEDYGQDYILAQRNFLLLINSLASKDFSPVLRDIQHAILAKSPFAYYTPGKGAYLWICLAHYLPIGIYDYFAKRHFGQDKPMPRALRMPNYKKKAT

`CC1=CC2C(CC[C@@]3(C)C2CCC(=O)[C@@]3(C)OC(=O)Cc2ccc(OC(=O)C(C)(C)C)cc2)[C@@]2(C)CCC(=O)C=C12` (some centres unmarked) was tested. Which “Antiandrogenic Activity Shionogi DHT E^−6” value ([1]; with DHT, E^−6) did it give?
Its value is −19.

What about the “Antiandrogenic Activity Shionogi DHT E^−7” value ([1]; with DHT, E^−7) of the same compound?
Its value is 9.

What about the IC50 [2, 7] of the same compound?
The IC50 was 29.7 nM.

And the “Androgenic Activity Shionogi Basal E^−6” value ([3]; E^−6)?
Its value is −11.

And the “Androgenic Activity Shionogi Basal E^−7” value ([3]; E^−7)?
Its value is 13.

What does the source list for `CCCC(=O)O[C@]1(C(=O)N(C)Cc2ccccc2)CCC2C3C=C(C)C4=CC(=O)CC[C@]4(C)C3CC[C@@]21C` (some centres unmarked)?
Antiandrogenic Activity Shionogi, DHT ([1]; DHT, E^−6): −121; Antiandrogenic Activity Shionogi, DHT ([1]; DHT, E^−7): −66; Inhibition Type 2 17β-HSD Activity [% Inh.] [4]: [88] %; IC50 [2, 8]: 6.8 nM; Androgenic Activity Shionogi, Basal ([3]; E^−6): −62; Androgenic Activity Shionogi, Basal ([3]; E^−7): −32

For `CCCC(=O)O[C@]1(C(=O)N(C)CC(C)C)CCC2C3C=C(C)C4=CC(=O)CC[C@]4(C)C3CC[C@@]21C` (some centres unmarked), which “Antiandrogenic Activity Shionogi, DHT” value ([1]; DHT, E^−6) is on record?
Its value is −116.

And the “Antiandrogenic Activity Shionogi, DHT” value ([1]; DHT, E^−7)?
Its value is −92.

And the “Inhibition Type 2 17β-HSD Activity [% Inh.]” value [4]?
Its value is “[79] %”.

What about the IC50 [2, 8] of the same compound?
Its IC50 is 5 nM.

And the “Androgenic Activity Shionogi, Basal” value ([3]; E^−6)?
The value was −44.

And the “Androgenic Activity Shionogi, Basal” value ([3]; E^−7)?
The value was −33.

`CC1=CC2C(CC[C@@]3(C)C2CCC(=O)[C@@]3(C)OC(=O)C2CCCC2)[C@]2(C)C1=CC(=O)C[C@@H]2C` (some centres unmarked) was tested. Which IC50 [1, 9] did it give?
Its IC50 is 184 nM.

And the “Antiandrogenic Activity Shionogi DHT E^−6” value ([1]; with DHT, E^−6)?
Its value is −107.

And the “Antiandrogenic Activity Shionogi DHT E^−7” value ([1]; with DHT, E^−7)?
The value was −23.

And the IC50 [2, 7]?
Its IC50 is 24.2 nM.

What about the “Androgenic Activity Shionogi Basal E^−6” value ([3]; E^−6) of the same compound?
The value was −22.

What about the “Androgenic Activity Shionogi Basal E^−7” value ([3]; E^−7) of the same compound?
The value was 0.

Which IC50 [2, 10] does the source give for `C[C@]12CCC(=O)NC1CCC1C2CC[C@@]2(C)C1CC[C@@]21CCCCC(=O)O1` (some centres unmarked) here?
Its IC50 is 20 nM.

`CC(=O)CCCC(=O)O[C@]1(C(C)=O)CCC2C3C=C(C)C4=CC(=O)CC[C@]4(C)C3CC[C@@]21C` (some centres unmarked) was tested. Which “Antiandrogenic Activity Shionogi, DHT” value ([1]; DHT, E^−6) did it give?
Its value is −109.

And the “Antiandrogenic Activity Shionogi, DHT” value ([1]; DHT, E^−7)?
Its value is −22.

What about the IC50 [2, 8] of the same compound?
Its IC50 is 11 nM.

And the “ZR-75-1 Activity, Basal” value (ZR-75-1 cells [5]; E^−6)?
Its value is 0.

And the “ZR-75-1 Activity, Basal” value (ZR-75-1 cells [5]; E^−8)?
The value was −23.

And the “Androgenic Activity Shionogi, Basal” value ([3]; E^−6)?
The value was −11.

And the “Androgenic Activity Shionogi, Basal” value ([3]; E^−7)?
The value was 5.

What about the “ZR-75-1 Activity, E2” value (ZR-75-1 cells [6]; E2) of the same compound?
The value was −47.

And the “ZR-75-1 Activity, E2” value (ZR-75-1 cells [6]; E2, E^−8)?
Its value is −60.

How did the “Antiandrogenic Activity Shionogi, DHT” value ([1]; DHT, E^−6) turn out when `CCCCCC(=O)O[C@]1(C(C)=O)CCC2C3C=C(C)C4=CC(=O)C[C@H](C)[C@]4(C)C3CC[C@@]21C` (some centres unmarked) was run?
Its value is −121.

And the “Antiandrogenic Activity Shionogi, DHT” value ([1]; DHT, E^−7)?
Its value is −51.

And the IC50 [2, 8]?
Its IC50 is 21.3 nM.

What about the “ZR-75-1 Activity, Basal” value (ZR-75-1 cells [5]; E^−6) of the same compound?
The value was −9.

What about the “ZR-75-1 Activity, Basal” value (ZR-75-1 cells [5]; E^−8) of the same compound?
Its value is −29.

What about the “Androgenic Activity Shionogi, Basal” value ([3]; E^−6) of the same compound?
The value was −21.

What about the “Androgenic Activity Shionogi, Basal” value ([3]; E^−7) of the same compound?
The value was −4.

And the “ZR-75-1 Activity, E2” value (ZR-75-1 cells [6]; E2)?
Its value is −19.

What about the “ZR-75-1 Activity, E2” value (ZR-75-1 cells [6]; E2, E^−8) of the same compound?
The value was −12.

With `CC(=O)O[C@]1(C)C(=O)CCC2C3C=C(C)C4=CC(=O)C[C@H](C)[C@]4(C)C3CC[C@@]21C` (some centres unmarked) as the compound, how does the IC50 [1, 9] read?
Its IC50 is 151 nM.

And the “Antiandrogenic Activity Shionogi DHT E^−6” value ([1]; with DHT, E^−6)?
The value was −106.

And the “Antiandrogenic Activity Shionogi DHT E^−7” value ([1]; with DHT, E^−7)?
The value was −41.

And the IC50 [2, 7]?
Its IC50 is 28.5 nM.

What about the “Androgenic Activity Shionogi Basal E^−6” value ([3]; E^−6) of the same compound?
The value was −32.

What about the “Androgenic Activity Shionogi Basal E^−7” value ([3]; E^−7) of the same compound?
The value was −12.

For `CCCN(C)C(=O)[C@@]1(OC(=O)CC)CCC2C3C=C(C)C4=CC(=O)CC[C@]4(C)C3CC[C@@]21C` (some centres unmarked), which “Antiandrogenic Activity Shionogi, DHT” value ([1]; DHT, E^−6) is on record?
The value was 116.

What about the “Antiandrogenic Activity Shionogi, DHT” value ([1]; DHT, E^−7) of the same compound?
The value was −47.

What about the “Inhibition Type 2 17β-HSD Activity [% Inh.]” value [4] of the same compound?
Its value is “[87] %”.

And the IC50 [2, 8]?
Its IC50 is 6 nM.

And the “Androgenic Activity Shionogi, Basal” value ([3]; E^−6)?
Its value is −56.

And the “Androgenic Activity Shionogi, Basal” value ([3]; E^−7)?
The value was −28.

`CC1=CC2C(CC[C@@]3(C)C2CCC(=O)[C@@]3(C)OC(=O)C(C)C)[C@]2(C)C1=CC(=O)C[C@@H]2C` (some centres unmarked) was tested. Which IC50 [1, 9] did it give?
The IC50 was 300 nM.

What about the “Antiandrogenic Activity Shionogi DHT E^−6” value ([1]; with DHT, E^−6) of the same compound?
Its value is −95.

And the “Antiandrogenic Activity Shionogi DHT E^−7” value ([1]; with DHT, E^−7)?
Its value is −19.

What about the IC50 [2, 7] of the same compound?
The IC50 was 38.6 nM.

What about the “Androgenic Activity Shionogi Basal E^−6” value ([3]; E^−6) of the same compound?
Its value is −17.

What about the “Androgenic Activity Shionogi Basal E^−7” value ([3]; E^−7) of the same compound?
Its value is −13.

`CC(=O)[C@@]1(OC(=O)C2CCCC2)CC[C@H]2[C@@H]3C=C(C)C4=CC(=O)CC[C@]4(C)[C@H]3CC[C@@]21C` was tested. Which “Antiandrogenic Activity Shionogi, DHT” value ([1]; DHT, E^−6) did it give?
Its value is −110.

And the “Antiandrogenic Activity Shionogi, DHT” value ([1]; DHT, E^−7)?
The value was −79.

And the IC50 [1, 11]?
Its IC50 is 44 nM.

And the “ZR-75-1 Activity, Basal” value (ZR-75-1 cells [5]; E^−6)?
The value was 0.

What about the “ZR-75-1 Activity, Basal” value (ZR-75-1 cells [5]; E^−8) of the same compound?
Its value is −17.

What about the “Androgenic Activity Shionogi, Basal” value ([3]; E^−6) of the same compound?
The value was −25.

And the “Androgenic Activity Shionogi, Basal” value ([3]; E^−7)?
Its value is −23.

What about the “ZR-75-1 Activity, E2” value (ZR-75-1 cells [6]; E2) of the same compound?
Its value is −46.

What about the “ZR-75-1 Activity, E2” value (ZR-75-1 cells [6]; E2, E^−8) of the same compound?
The value was −39.

Which results are given for `CC1(C)CC[C@@]2(CCC3C4CCC5NC(=O)C=C[C@]5(C)C4CC[C@@]32C)OC1=O` (some centres unmarked)?
Inhibition Type 2 17β-HSD Activity [% Inh. at 3.10^−5 M] ([4]; Table 5 column 5, bracketed values, 3.10^−5 M): [81] %; IC50 [2, 10]: 26 nM

For `CC(=O)[C@@]1(OC(=O)CCCCl)CCC2C3C=C(C)C4=CC(=O)CC[C@]4(C)C3CC[C@@]21C` (some centres unmarked), which “Antiandrogenic Activity Shionogi, DHT” value ([1]; DHT, E^−6) is on record?
The value was −93.

And the “Antiandrogenic Activity Shionogi, DHT” value ([1]; DHT, E^−7)?
The value was −91.

What about the IC50 [1, 11] of the same compound?
Its IC50 is 10 nM.

And the IC50 [2, 8]?
Its IC50 is 4.1 nM.

What about the “Androgenic Activity Shionogi, Basal” value ([3]; E^−6) of the same compound?
Its value is 23.

And the “Androgenic Activity Shionogi, Basal” value ([3]; E^−7)?
The value was 5.

How did the “Antiandrogenic Activity Shionogi, DHT” value ([1]; DHT, E^−6) turn out when `CCC(=O)O[C@]1(C(=O)N(C)C(C)C)CCC2C3C=C(C)C4=CC(=O)CC[C@]4(C)C3CC[C@@]21C` (some centres unmarked) was run?
The value was −99.

And the “Antiandrogenic Activity Shionogi, DHT” value ([1]; DHT, E^−7)?
Its value is −25.

And the “Inhibition Type 2 17β-HSD Activity [% Inh.]” value [4]?
Its value is “[84] %”.

What about the IC50 [2, 8] of the same compound?
The IC50 was 7 nM.

What about the “Androgenic Activity Shionogi, Basal” value ([3]; E^−6) of the same compound?
The value was 0.

What about the “Androgenic Activity Shionogi, Basal” value ([3]; E^−7) of the same compound?
Its value is 0.

From patent US6541463B1, “Inhibitors of type 5 and type 3 17β-hydroxysteroid dehydrogenase and methods for their use” (Endorecherche, Inc., priority 1998, dated 2003)
